Results published in US9561289B2, “Peptides for inhibiting tumor growth” (OSPEDALE SAN RAFFAELE SRL, priority 2012, dated 2017).

Tested on: EA.hy926 endothelial cells
Assay: Endothelial cell adhesion to vitronectin-coated plates
Type: cell-based, human
Conditions: EA.hy926, substance added to supernatant
Procedure: Endothelial cell (EA.hy926) adhesion to microtiter plates coated with human vitronectin was carried out as described ([25]). IsoDGR#1 and isoDGR#3 were added to the supernatant during cell adhesion. Data from a representative experiment of three independent experiments is shown. Mean±S.E (n=3).
(A) Endothelial EA.hy926 cell were mixed with isoDGR#1-HSA (9:1) and linker-HSA (*HSA), left to adhere for 2 h to microtiter plates coated with vitronectin and stained with crystal violet as described. Cell adhesion was quantified by spectrophotometric measurement (A570 nm).

With “*HSA(0:1): sulfo-SMCC-activated albumin lacking the peptide [reference compound]” the “inhibition of endothelial cell adhesion to vitronectin” value was “completely inactive”.
